From patent US12534451B2, “Small molecule modulators of PanK” (St. Jude Children's Research Hospital, priority 2019, dated 2026)

Amino acid sequences for entries named in this document (tags omitted). A change or cut given only in a name is not applied to a line headed by its entry.
UniProt Q9H999: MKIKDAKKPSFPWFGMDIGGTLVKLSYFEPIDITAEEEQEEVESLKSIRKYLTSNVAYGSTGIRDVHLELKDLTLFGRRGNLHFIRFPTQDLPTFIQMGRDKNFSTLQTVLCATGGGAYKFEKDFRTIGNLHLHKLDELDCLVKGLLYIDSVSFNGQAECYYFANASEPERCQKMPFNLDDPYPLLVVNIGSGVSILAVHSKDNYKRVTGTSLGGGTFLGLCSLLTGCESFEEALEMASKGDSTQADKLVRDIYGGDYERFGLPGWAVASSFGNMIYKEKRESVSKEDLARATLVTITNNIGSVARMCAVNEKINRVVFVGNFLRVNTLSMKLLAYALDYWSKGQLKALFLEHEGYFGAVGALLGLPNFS

Molecular target: human PANK3 (Homo sapiens (Human), UniProt Q9H999)
Assay: PANK activity assay (radiochemical, D-[1-14C]pantothenate)
Type: biochemical
Conditions: 5 nM human PANK3, 2.5 mM ATP, 45 μM pantothenate, 10 min at 37° C.; average ± data range
Description: The PanK activity and Surface Plasmon Resonance assays were conducted as explained in the literature.
If the IC^50 was determined to be in the nM range then the assay was repeated in the presence of 0-1 μM or 0-0.1 μM compound to more precisely determine the IC^50. All the experiments were repeated twice in duplicate and the data were an average ±data range.
The experiments mimicking the mixture of ligands present in vivo were performed under different conditions. […] The IC^50 values for the structure-activity study were calculated by fitting the inhibition data to a one-site model of the Michaelis-Menten equation. […] Thus, the data were fit to Morrison's quadratic equation (GraphPad software) that accounts for the impact of enzyme inhibitor binding on the free concentration of inhibitor.

SMILES: C[C@@H]1CN(C(=O)Cc2ccc(N(C)C)cc2)CCN1c1ccc(Cl)nn1 [PZ-4109]
- IC50: 10.6 ± 1 nM

SMILES: C[C@H]1CN(C(=O)Cc2ccc(N(C)C)cc2)CCN1c1ccc(Cl)nn1 [PZ-4110]
- IC50: 10.7 ± 0.6 nM
